# AlphaSeq binding of Ab-14 light chain variants to a spike HR2 peptide

All variants were tested on one target, the spike HR2 peptide PDVDLGDISGINAS (SARS-CoV-2).

Each scFv is VH, a (GGGGS)3 linker, VL, as in the parent Ab-14, and differs from it in the CDRs of the light chain only.
VH: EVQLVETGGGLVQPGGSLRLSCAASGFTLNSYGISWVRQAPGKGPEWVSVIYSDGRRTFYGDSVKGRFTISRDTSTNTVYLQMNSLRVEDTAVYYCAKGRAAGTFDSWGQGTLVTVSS
VL: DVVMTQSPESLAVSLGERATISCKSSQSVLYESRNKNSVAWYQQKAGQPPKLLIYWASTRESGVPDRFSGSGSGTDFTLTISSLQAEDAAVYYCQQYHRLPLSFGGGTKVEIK

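The parent was found by panning a naive human phage display library on the peptide. The variants were designed computationally from a first round of random CDR variants and then made and measured. Their group label is 14L_En_Gibbs (En: ensemble of fine-tuned language models; Gibbs: Gibbs sampling). The scFvs were displayed on barcoded MATa yeast, the peptide on MATalpha yeast. Mating (16 h, 30 °C) was followed by selection of diploids and sequencing of their barcodes. The ratio of observed to expected reads was calibrated, replicate by replicate, on BCL2-family standards whose Kd was known from biolayer interferometry. Mating was done six times.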

Each variant is given by its three light chain CDRs, as the data file delimits them; those of the parent are KSSQSVLYESRNKNSVA, WASTRES, QQYHRLPLS.
Values are log10 of the apparent Kd in nM; lower means stronger binding.
"n.d." marks a missing value. The strain was present, yet no cells mated with the target were sequenced in that replicate, which points to weak or no binding.
Of ten entries with the parent sequence, four were seen in most replicates (averages 0.34 to 2.37), three in one and three in none, so single entries are noisy.
A sequence measured in both rounds can read differently, since the two assays cover different ranges.
Background: pairings of all light chain designs with three empty control strains gave a value in 4% of cases (median 2.64, 5th percentile 1.59). Values in that range, when seen in few replicates, are hard to tell from nonspecific mating. For each scFv, signals with the empty controls are counted beside the result, with their mean in brackets.
The authors averaged sequences with at least three values out of six and counted those with two or fewer as poor binders.

CDR-L1	CDR-L2	CDR-L3	replicates, log10 nM	empty controls
KLFDRTMEGIANQNAVA	EDNDVSV	QQYSILPLT	n.d. / n.d. / n.d. / n.d. / n.d. / n.d.	1/18 (1.17)
HTQHLGFGDPYAWNNVA	DVSQVCS	QQYARLPLT	-0.23 / 0.00 / n.d. / 0.11 / 0.01 / n.d.	0/18
KLFDELSVEQVNARNVA	DALATME	QQYKMLPLS	0.27 / 0.26 / 0.22 / -0.13 / -0.01 / 0.28	0/18
RITHSQLDYRNPEANIA	HESMRAV	QQYSQLPLT	0.32 / 0.29 / 0.34 / -0.12 / 0.53 / 0.69	1/18 (1.87)
SLHDMNMMGLANNANVA	NASQLFS	QHYFRLPLQ	1.07 / 2.03 / 2.02 / 1.08 / 1.96 / 1.55	0/18
VLGGQWGLGTTQNSSVA	NVSETML	QQYNRLPLM	2.21 / 1.92 / 0.82 / 1.27 / 1.44 / 1.57	1/18 (2.62)
AVQYQLRPGREIQNPIA	EGSHRAA	QQYDRLPLG	1.13 / 0.76 / 0.69 / 0.28 / 0.79 / 0.59	1/18 (2.95)
FLTYASDQTGLQGNAIA	QVNLKEN	QQYMRLPLA	n.d. / 2.04 / 2.65 / 2.07 / 1.50 / 2.61	1/18 (4.49)
SMSNLGMVPSVWKNSIA	DAEIVEE	QQYSRLPLL	0.33 / 0.12 / 0.09 / -0.08 / -0.02 / 0.07	3/18 (2.70)
SLYENYQMGGLHTNAVA	DANQMMR	QHYNRLPLA	0.23 / 0.08 / -0.12 / 0.30 / 0.41 / 0.19	0/18
NLSDGDMYHNATRSAVA	NTSMRDF	QQYNRLPLD	1.44 / 1.77 / 1.94 / 1.48 / 2.23 / n.d.	2/18 (2.92)
YLSMMQQMLGDLMHNVA	DANVATM	QDYFRLPLM	n.d. / n.d. / n.d. / n.d. / n.d. / n.d.	0/18
NMKVGLNFEDINHQAIA	SVDEREK	QQYYRLPLT	0.99 / 1.16 / 0.59 / 0.88 / 0.75 / 0.86	2/18 (2.47)
SMSNLQEVPDVWKNSIA	DAEHVEY	QQYSRLPLT	0.37 / 0.37 / 0.33 / 0.10 / 0.28 / 0.66	1/18 (3.02)
NLVGRVPDMYDGRNAIA	DMHCRAG	QQYERLPLA	n.d. / 1.20 / n.d. / n.d. / 2.07 / 3.13	0/18
GFSDQITEQIADANSIA	DRDERDV	QQYSRLPLI	1.15 / 0.82 / 1.45 / 1.41 / 0.85 / 1.46	1/18 (2.77)
SVAMLLGQQYAKGANIA	EAAELVV	QQYYRLPLT	1.03 / 1.57 / 0.99 / 1.50 / 1.16 / 1.58	1/18 (2.61)
ALGQKGFQQSGMRDSIA	HSDQRLA	QQYYHLPLA	-0.02 / -0.03 / -0.12 / -0.14 / -0.19 / 0.05	3/18 (3.29)
WLENDQFIESHKNNSVA	QGTMREA	QQYMRLPLA	1.20 / 0.79 / 0.95 / 1.00 / 1.06 / 1.16	0/18
KLAMALSVEFGTYHGVA	DADHRMH	QQYNRLPLS	0.58 / 0.43 / 0.43 / 0.06 / 0.25 / 0.33	2/18 (3.15)
HLALRLSYGNMLNKAVA	EVQARVY	QQYARLPLL	n.d. / n.d. / n.d. / n.d. / n.d. / n.d.	0/18
KLSLSLGESKQSERNIA	NMRVSVA	QQYDHLPLT	0.35 / 0.47 / 0.26 / 0.17 / 0.18 / 0.49	1/18 (2.58)
KLSQGTYGLTQIDSNVA	HDEMRWQ	QQYDKLPLI	n.d. / n.d. / n.d. / n.d. / n.d. / n.d.	1/18 (1.98)
KITFQMMSSNAHQYSIA	QTNVYSQ	QQYNRLPLD	n.d. / n.d. / n.d. / n.d. / n.d. / n.d.	0/18
YMSDSMQETIADANHIA	DGEARDV	QQYARLPLI	0.92 / 0.72 / 0.70 / 0.54 / 0.97 / 0.78	2/18 (2.06)
RLSVNLDAGNISTNAIA	EGKSVEQ	QQYMRLPLG	1.09 / 1.28 / 1.07 / 1.57 / 0.89 / 1.35	3/18 (2.97)
HISNMQAYGYSAYNSVA	DNENKLN	QQYIRLPLT	0.29 / 0.44 / -0.28 / -0.15 / -0.14 / -0.20	0/18
KLKIEVVDNQQLRNSIA	ENELRAM	QQYLSLPLS	1.05 / 0.94 / 1.31 / 1.27 / 1.76 / 1.60	1/18 (2.11)
KAQLTHEGQPRNHNSIA	EGISRTT	QQYFRLPLM	0.40 / -0.11 / -0.14 / -0.15 / 0.12 / 0.14	1/18 (2.69)
SMETHSQDNRLDWSAVA	EAQTIYQ	QQYARLPLS	n.d. / n.d. / n.d. / n.d. / n.d. / n.d.	0/18
NMTLQVFNGSRNKYNIA	AEVKRVY	QQYQRLPLM	n.d. / 2.84 / 1.61 / 4.35 / n.d. / 4.34	1/18 (2.63)
DFALDQDSMGEAKNSIA	DRNTKAH	QQYSRLPLV	0.92 / 0.60 / 0.75 / 0.42 / 0.38 / 0.38	1/18 (1.75)
QMTENDKGHQAGGGSIA	DATETME	QQYMHLPLS	1.41 / 0.82 / 1.67 / 1.05 / -0.03 / 0.36	0/18

Again, the first 3 entries without any signal:

{"CDR-L1": "KLFDRTMEGIANQNAVA", "CDR-L2": "EDNDVSV", "CDR-L3": "QQYSILPLT", "replicates, log10 nM": "n.d. / n.d. / n.d. / n.d. / n.d. / n.d.", "empty controls": "1/18 (1.17)"}
{"CDR-L1": "YLSMMQQMLGDLMHNVA", "CDR-L2": "DANVATM", "CDR-L3": "QDYFRLPLM", "replicates, log10 nM": "n.d. / n.d. / n.d. / n.d. / n.d. / n.d.", "empty controls": "0/18"}
{"CDR-L1": "HLALRLSYGNMLNKAVA", "CDR-L2": "EVQARVY", "CDR-L3": "QQYARLPLL", "replicates, log10 nM": "n.d. / n.d. / n.d. / n.d. / n.d. / n.d.", "empty controls": "0/18"}

Values reported by Li et al. 2023, doi:10.1038/s41467-023-39022-2 (FLAb copy).